# Source: patent US20180099931A1 (AbbVie S.à.r.l., priority 2016, published 2018)
# Sequences of proteins named here, by UniProt entry; tags and fusion partners are left off. A line that says so, or that is headed by a name, gives the form on record, which may keep a tag or linker.
# UniProt P13569, with tags, fused parts or gaps DEL508-508: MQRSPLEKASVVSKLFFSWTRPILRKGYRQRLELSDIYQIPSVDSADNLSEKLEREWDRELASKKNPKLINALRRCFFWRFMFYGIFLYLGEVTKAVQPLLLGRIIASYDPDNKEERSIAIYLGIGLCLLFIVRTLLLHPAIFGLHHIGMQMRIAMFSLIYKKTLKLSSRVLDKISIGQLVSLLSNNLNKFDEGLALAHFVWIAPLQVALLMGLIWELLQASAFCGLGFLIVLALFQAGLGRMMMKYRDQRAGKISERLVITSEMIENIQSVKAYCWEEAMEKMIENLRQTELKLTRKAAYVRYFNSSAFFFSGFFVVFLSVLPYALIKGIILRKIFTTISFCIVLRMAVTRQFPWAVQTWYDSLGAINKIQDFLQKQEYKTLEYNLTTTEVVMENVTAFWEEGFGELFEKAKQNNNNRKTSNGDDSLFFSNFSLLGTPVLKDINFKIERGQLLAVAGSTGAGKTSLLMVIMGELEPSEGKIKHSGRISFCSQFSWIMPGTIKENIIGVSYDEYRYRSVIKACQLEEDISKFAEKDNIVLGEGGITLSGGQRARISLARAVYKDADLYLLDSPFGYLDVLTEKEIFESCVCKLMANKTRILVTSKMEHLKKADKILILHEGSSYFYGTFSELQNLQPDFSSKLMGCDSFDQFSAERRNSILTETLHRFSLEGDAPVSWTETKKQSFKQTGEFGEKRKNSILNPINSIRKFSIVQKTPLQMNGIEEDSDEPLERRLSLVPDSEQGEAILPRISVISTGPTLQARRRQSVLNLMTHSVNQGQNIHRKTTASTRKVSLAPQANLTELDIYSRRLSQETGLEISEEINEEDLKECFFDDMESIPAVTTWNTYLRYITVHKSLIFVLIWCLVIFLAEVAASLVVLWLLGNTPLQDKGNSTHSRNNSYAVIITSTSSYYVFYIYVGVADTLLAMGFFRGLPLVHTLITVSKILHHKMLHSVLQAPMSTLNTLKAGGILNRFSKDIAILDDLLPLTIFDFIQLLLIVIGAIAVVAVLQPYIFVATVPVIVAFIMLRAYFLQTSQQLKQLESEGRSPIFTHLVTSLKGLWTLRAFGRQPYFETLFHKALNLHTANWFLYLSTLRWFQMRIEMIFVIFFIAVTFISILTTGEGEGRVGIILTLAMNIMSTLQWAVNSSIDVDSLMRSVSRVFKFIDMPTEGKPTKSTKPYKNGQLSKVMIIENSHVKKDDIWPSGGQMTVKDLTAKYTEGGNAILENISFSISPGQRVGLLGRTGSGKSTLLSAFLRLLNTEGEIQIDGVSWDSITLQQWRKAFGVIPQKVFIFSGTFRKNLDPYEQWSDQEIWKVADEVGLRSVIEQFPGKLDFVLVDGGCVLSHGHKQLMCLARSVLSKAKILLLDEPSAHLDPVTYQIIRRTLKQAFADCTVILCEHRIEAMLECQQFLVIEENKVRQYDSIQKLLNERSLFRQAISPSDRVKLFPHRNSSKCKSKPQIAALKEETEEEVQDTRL
# Target: F508delCFTR (Homo sapiens, UniProt P13569, DEL508-508)
# Assay: Cell Surface Expression-Horse Radish Peroxidase (CSE-HRP) Assay;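 on Maximum % activity (with co-corrector): co-corrector and positive control are both the same reference corrector at 2 µM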
# Type: cell-based
# Conditions: for Maximum % activity (with co-corrector): maximum at any tested concentration, normalized to on-plate positive control
# [1] = read-out: EC50 (with co-corrector), with co-corrector (2 μM of 3-[(2R,4R)-4-({[1-(2,2-difluoro-1,3-benzodioxol-5-yl)cyclopropyl]carbonyl}amino)-7-methoxy-3,4-dihydro-2H-chromen-2-yl]benzoic acid)
# [2] = read-out: EC50 (without co-corrector), test compound without co-corrector
# [3] = with co-corrector (2 μM of 3-[(2R,4R)-4-({[1-(2,2-difluoro-1,3-benzodioxol-5-yl)cyclopropyl]carbonyl}amino)-7-methoxy-3,4-dihydro-2H-chromen-2-yl]benzoic acid)
# [4] = CSE-HRP, with co-corrector (2 μM)
# [5] = read-out: EC50 (with co-corrector), CSE-HRP, with co-corrector (2 μM of 3-[(2R,4R)-4-({[1-(2,2-difluoro-1,3-benzodioxol-5-yl)cyclopropyl]carbonyl}amino)-7-methoxy-3,4-dihydro-2H-chromen-2-yl]benzoic acid)
# [6] = read-out: EC50 (without co-corrector), CSE-HRP, test compound without co-corrector
Structure (SMILES),EC50 [1],EC50 [2],Maximum % activity (with co-corrector) [3],Maximum % activity (with co-corrector) [4],EC50 [5],EC50 [6],Maximum % activity (with co-corrector) (with co-corrector (2 μM))
COc1ccc(C(F)(F)F)cc1CN[C@H]1[C@H](C(C)(C)C)[C@@H](C(=O)O)N(C(=O)C2CCCCC2)[C@H]1c1cccnc1OC (relative stereo),,,,+++ (≥350),1 to 10 µM,1 to 10 µM,
CC(C)(C)[C@@H]1[C@@H](Nc2ccc(Cl)cn2)[C@@H](c2ccccc2)N(C(=O)C2CCCCC2)[C@H]1C(=O)O (relative stereo),,,,++ (≥150 and <350),1 to 10 µM,1 to 10 µM,
CC(C)(C)[C@H]1[C@H](NC2Cc3ccc(Cl)cc3C2)[C@H](c2ccccc2)N(C(=O)C2CCCCC2)[C@@H]1C(=O)O (stereo partly drawn),1 to 10 µM,< 1 µM,,,,,+++ (≥350)
CCC1(O)CCC(C(=O)N2[C@H](C(=O)O)[C@@H](C(C)(C)C)[C@H](NCc3cc(C(C)(C)C)ccc3OC)[C@@H]2c2ccccc2)CC1 (stereo partly drawn),1 to 10 µM,1 to 10 µM,,,,,+++ (≥350)
CC(C)(C)[C@H]1[C@H](NC2CCc3cc(Cl)ccc32)[C@H](c2ccccc2)N(C(=O)C2CCCCC2)[C@@H]1C(=O)O (stereo partly drawn),1 to 10 µM,1 to 10 µM,,,,,+++ (≥350)
C=CC[C@]1(O)CC[C@H](C(=O)N2[C@H](C(=O)O)[C@@H](C(C)(C)C)[C@H](NCc3cc(C(C)(C)C)ccc3OC)[C@@H]2c2ccccc2)CC1,1 to 10 µM,1 to 10 µM,+++ (≥350),,,,
CCCC1(O)CCC(C(=O)N2[C@H](C(=O)O)[C@@H](C(C)(C)C)[C@H](Nc3cc(C(F)(F)F)cnc3OC)[C@@H]2c2cccnc2N(C)C)CC1 (stereo partly drawn),> 10 µM,> 10 µM,,,,,+ (<150)
COc1cc(C(F)(F)F)ccc1CN[C@H]1[C@H](C(C)(C)C)[C@@H](C(=O)O)N(C(=O)C2CCOC(C)(C)C2)[C@H]1c1ccccc1N(C)C (relative stereo),1 to 10 µM,1 to 10 µM,,,,,+++ (≥350)
COc1ncc(C(F)(F)F)cc1CN[C@H]1[C@H](C(C)(C)C)[C@@H](C(=O)O)N(C(=O)[C@@H]2CCCO2)[C@H]1c1ccccc1Cl,,,,+++ (≥350),1 to 10 µM,1 to 10 µM,
C=CCC1(O)CCC(C(=O)N2[C@H](C(=O)O)[C@@H](C(C)(C)C)[C@H](NCc3cc(C(C)(C)C)ccc3OC)[C@@H]2c2ccccc2)CC1 (stereo partly drawn),1 to 10 µM,1 to 10 µM,,,,,+++ (≥350)
COc1ccc(C23CC4CC(CC(C4)C2)C3)cc1CN[C@H]1[C@H](C(C)(C)C)[C@@H](C(=O)O)N(C(=O)C2CCCCC2)[C@H]1c1ccc(F)cc1,,,,+++ (≥350),< 1 µM,1 to 10 µM,
COc1ccc(C(C)(C)C)cc1CN[C@H]1[C@H](C(C)(C)C)[C@@H](C(=O)O)N(C(=O)[C@H]2CC[C@](O)(C(F)(F)F)CC2)[C@H]1c1ccccc1,1 to 10 µM,1 to 10 µM,+++ (≥350),,,,
COc1ccc(Cl)cc1CN[C@H]1[C@H](C(C)(C)C)[C@@H](C(=O)O)N(C(=O)C2CCCCC2)[C@H]1c1cccnc1OC (relative stereo),,,,+++ (≥350),1 to 10 µM,1 to 10 µM,
COc1ccc(C(C)(C)C)cc1CN[C@H]1[C@H](C(C)(C)C)[C@@H](C(=O)O)N(C(=O)C2CCC(O)(C(F)(F)F)CC2)[C@H]1c1ccccc1 (stereo partly drawn),1 to 10 µM,1 to 10 µM,+++ (≥350),,,,
COc1cc(Cl)ccc1CN[C@H]1[C@H](C(C)(C)C)[C@@H](C(=O)O)N(C(=O)C2CCCCC2)[C@H]1c1cccnc1OC (relative stereo),,,,+++ (≥350),1 to 10 µM,1 to 10 µM,

# Further lines, results first:
EC50 [1],EC50 [2],Maximum % activity (with co-corrector) [3],Maximum % activity (with co-corrector) [4],EC50 [5],EC50 [6],Maximum % activity (with co-corrector) (with co-corrector (2 μM)),Structure (SMILES)
< 1 µM,< 1 µM,+++ (≥350),,,,,COc1ccc(C(C)(C)C)cc1CN[C@H]1[C@H](C(C)(C)C)[C@@H](C(=O)O)N(C(=O)[C@@H]2C[C@H](C)C[C@H](C)C2)[C@H]1c1ccccc1
1 to 10 µM,1 to 10 µM,+++ (≥350),,,,,CC(C)(C)[C@@H]1[C@@H](NCc2ccccc2Cl)[C@@H](c2ccccc2)N(C(=O)CC2CCCC2)[C@H]1C(=O)O (relative stereo)
1 to 10 µM,1 to 10 µM,+++ (≥350),,,,,COc1ccc(C(C)(C)C)cc1CN[C@H]1[C@H](C(C)(C)C)[C@@H](C(=O)O)N(C(=O)[C@H]2CC[C@@](O)(C(C)C)CC2)[C@H]1c1ccccc1
< 1 µM,< 1 µM,+++ (≥350),,,,,COc1ccc(C23CC4CC(CC(C4)C2)C3)cc1CN[C@H]1[C@H](C(C)(C)C)[C@@H](C(=O)O)N(C(=O)OC(C)C)[C@H]1c1ccccc1
1 to 10 µM,1 to 10 µM,+++ (≥350),,,,,CC[C@]1(O)CC[C@H](C(=O)N2[C@H](C(=O)O)[C@@H](C(C)(C)C)[C@H](NCc3cc(C(C)(C)C)ccc3OC)[C@@H]2c2ccccc2)CC1
1 to 10 µM,1 to 10 µM,+++ (≥350),,,,,CCC[C@]1(O)CC[C@H](C(=O)N2[C@H](C(=O)O)[C@@H](C(C)(C)C)[C@H](NCc3cc(C(C)(C)C)ccc3OC)[C@@H]2c2ccccc2)CC1
< 1 µM,< 1 µM,,,,,+++ (≥350),"COc1ccc(C(C)(C)C)cc1CN[C@H]1[C@H](C(C)(C)C)[C@@H](C(=O)O)N(C(=O)[C@H]2CCCCO2)[C@H]1c1ccccc1C(C)C (single isomer, unassigned)"
< 1 µM,< 1 µM,,,,,+++ (≥350),COc1ccc(C23CC4CC(CC(C4)C2)C3)cc1CN[C@H]1[C@H](C(C)(C)C)[C@@H](C(=O)O)N(C(=O)C2CCCCC2)[C@H]1c1ccccc1F
< 1 µM,1 to 10 µM,,,,,+++ (≥350),COc1ccc(C23CC4CC(CC(C4)C2)C3)cc1CN[C@H]1[C@H](C(C)(C)C)[C@@H](C(=O)O)N(C(=O)OC(C)C)[C@H]1c1cccnc1N(C)C
< 1 µM,1 to 10 µM,,,,,+++ (≥350),CC(C)(C)[C@H]1[C@H](NC2Cc3cccc(Cl)c3C2)[C@H](c2ccccc2)N(C(=O)C2CCCCC2)[C@@H]1C(=O)O (stereo partly drawn)
< 1 µM,< 1 µM,,,,,+++ (≥350),COc1ccc(C23CC4CC(CC(C4)C2)C3)cc1CN[C@H]1[C@H](C(C)(C)C)[C@@H](C(=O)O)N(C(=O)C2CCCCC2)[C@H]1c1ccccc1
< 1 µM,< 1 µM,+++ (≥350),,,,,COc1ccc(C(C)(C)C)cc1CN[C@H]1[C@H](C(C)(C)C)[C@@H](C(=O)O)N(C(=O)C2CCc3ccc(Cl)cc32)[C@H]1c1ccccc1 (stereo partly drawn)
< 1 µM,1 to 10 µM,+++ (≥350),,,,,COc1ccc(C2CCC2)cc1CN[C@H]1[C@H](C(C)(C)C)[C@@H](C(=O)O)N(C(=O)OC(C)C)[C@H]1c1cccnc1N(C)C
< 1 µM,1 to 10 µM,,,,,+++ (≥350),COc1ccc(C(C)(C)C)cc1CN[C@H]1[C@H](C(C)(C)C)[C@@H](C(=O)O)N(C(=O)C2CCC(O)(C(C)C)CC2)[C@H]1c1ccccc1 (stereo partly drawn)

# Where two headings read alike, the source gives them in different places.
